Tested on: epidermal cells in a Skin-Chip (microfluidic OT-chip)
Conditions: 15-minute exposure; citric acid 0.6M
Excerpt: In some embodiments, a live-dead staining is used for determining cell viability.

O=C(O)CO [glycolic acid]
cell death by DRAQ7 staining, dead cells/mm^2: highest cell death

Source: patent US20220081676A1, “MICROFLUIDIC DEVICES FOR TATTOO PIGMENT SAFETY” (priority 2019, published 2022)
